Biological target: denosumab (XGEVA)
Experiment: cell-based or functional assay

Substance: BX1001865 (IdeS lacking tag, produced to GMP standard) (enzyme)
- Conc. of enzyme, 1st IgG2 (XGEVA) heavy chain, IgG to scIgG (gel): 14 ng/mL
- Conc. of enzyme, 1st IgG heavy chain, IgG to scIgG (gel): 14 ng/mL
- Conc. of enzyme, 2nd IgG2 (XGEVA) heavy chain, scIgG to F(ab')2 (gel): 1100 ng/mL

Substance: pCART124 (IdeS with additional N terminal methionine and histidine tag) (enzyme)
- Conc. of enzyme, 2nd IgG2 (XGEVA) heavy chain, scIgG to F(ab')2 (gel): 1100 ng/mL
- EC50 in cleavage of IgG2 (XGEVA), potency ELISA: 0.225 mg/L

— patent publication US20200179497A1
